We go through one compound from article PMC10580319, “Quantitative Imaging of the Action of vCPP2319, an Antimicrobial Peptide from a Viral Scaffold, against Staphylococcus aureus Biofilms of a Clinical Isolate” (ACS Infectious Diseases, 2023).

The data set concerns human red blood cells (hRBCs). The data set can be described thus: Hemolytic activity on human red blood cells. Type of data set: cell-based. As to conditions: 3.13 μM, 1 h incubation, 37 °C, 0.25% (v/v) hRBCs in PBS pH 7.4, absorbance at 415 nm. How it is done: Fresh human blood was obtained from healthy donors after written informed consent. To isolate human red blood cells (hRBCs), samples were centrifuged at 1000g for 10 min at 4 °C, washed three times, and resuspended in sterile phosphate buffered saline (PBS) (pH 7.4) to a final concentration of 0.25% (v/v). hRBCs suspensions were incubated with vCPP2319, ranging from 0.05 to 50 μM, for 4 or 24 h, with α-amylase from Bacillus sp. (EC 3.2.1.1; ∼380 U/mg; Cat no. 10069 from Sigma-Aldrich), ranging from 0.0078 to 0.5 mg/mL, for 1 h, or with the hemolytic peptide melittin (positive control), ranging from 0.05 to 50 μM, for 1 h at 37 °C, with gentle swirling, in a sterile 96-well microtiter round-bottomed polypropylene plate (Corning, NY, USA). After incubation, the plate was centrifuged at 1000g for 5 min at 4 °C, and supernatants were transferred to a sterile 96-well microtiter clear flat-bottomed polystyrene plate (Corning). Hemoglobin release from lysed cells was quantified by measuring the absorbance at 415 nm in an infinite M200 microplate reader (Tecan, Männedorf, Switzerland). […] Hemolytic activity (%) was determined using the following equation: [drawing 1] 1 where Abstreated is the absorbance of peptide-treated cells, Absuntreated is the absorbance of samples incubated with PBS, and AbsTriton is the absorbance of samples incubated with Triton X-100. […]

Turning to `CC[C@H](C)[C@H](NC(=O)CN)C(=O)NCC(=O)N[C@@H](C)C(=O)N[C@H](C(=O)N[C@@H](CC(C)C)C(=O)N[C@@H](CCCCN)C(=O)N[C@H](C(=O)N[C@@H](CC(C)C)C(=O)N[C@H](C(=O)N[C@H](C(=O)NCC(=O)N[C@@H](CC(C)C)C(=O)N1CCC[C@H]1C(=O)N[C@@H](C)C(=O)N[C@@H](CC(C)C)C(=O)N[C@H](C(=O)N[C@@H](CO)C(=O)N[C@@H](Cc1c[nH]c2ccccc12)C(=O)N[C@H](C(=O)N[C@@H](CCCCN)C(=O)N[C@@H](CCCNC(=N)N)C(=O)N[C@@H](CCCCN)C(=O)N[C@@H](CCCNC(=N)N)C(=O)N[C@@H](CCC(N)=O)C(=O)N[C@@H](CCC(N)=O)C(N)=O)[C@@H](C)CC)[C@@H](C)CC)[C@@H](C)O)[C@@H](C)O)C(C)C)C(C)C` [melittin], the hemolysis result was “ca. 100%”.
